Measured values from ChEMBL document CHEMBL1155011, “Structure-activity relationships of the cycloalkanol ethylamine scaffold: discovery of selective norepinephrine reuptake inhibitors” (J Med Chem, 2008).

Protein sequences, listed by entry. Tags and fused reporters are not part of them.
UniProt P31645, whole entry: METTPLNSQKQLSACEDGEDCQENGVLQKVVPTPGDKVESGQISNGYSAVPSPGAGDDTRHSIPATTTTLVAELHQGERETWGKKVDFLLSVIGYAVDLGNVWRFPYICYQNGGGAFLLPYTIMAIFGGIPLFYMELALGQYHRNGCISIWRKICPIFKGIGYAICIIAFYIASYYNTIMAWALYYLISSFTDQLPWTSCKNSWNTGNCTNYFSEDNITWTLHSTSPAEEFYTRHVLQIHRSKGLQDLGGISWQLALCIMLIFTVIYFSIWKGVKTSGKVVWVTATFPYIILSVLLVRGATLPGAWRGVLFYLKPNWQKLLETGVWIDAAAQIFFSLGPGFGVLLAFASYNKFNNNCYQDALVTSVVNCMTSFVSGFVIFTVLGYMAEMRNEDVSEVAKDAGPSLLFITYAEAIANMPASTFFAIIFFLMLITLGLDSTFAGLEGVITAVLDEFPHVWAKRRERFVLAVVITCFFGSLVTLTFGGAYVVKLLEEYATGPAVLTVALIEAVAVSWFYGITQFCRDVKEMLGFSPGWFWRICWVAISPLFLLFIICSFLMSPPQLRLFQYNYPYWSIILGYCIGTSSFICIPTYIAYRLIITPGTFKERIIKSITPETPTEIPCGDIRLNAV

The molecules below were run against Sodium-dependent serotonin transporter (Homo sapiens, UniProt P31645).
Format: cell-based, JAR

IC50 [µM] | SMILES
0.155 | CN(C)C[C@H](c1cccc(Cl)c1)C1(O)CCCCC1
0.405 | CN(C)C[C@@H](c1cccc(Cl)c1)C1(O)CCCCC1

SMILES | IC50 [µM]
CN(C)CC(c1cccc(Cl)c1)C1(O)CCCCC1 (stereo not drawn) | 0.292
